Our source for the Ki values is ChEMBL document CHEMBL1133089 (J Med Chem, 2000).

Protein sequences, listed by entry. Tags and fused reporters are not part of them. Residues count along the entry.
UniProt P09483, 31-630 limits assumed: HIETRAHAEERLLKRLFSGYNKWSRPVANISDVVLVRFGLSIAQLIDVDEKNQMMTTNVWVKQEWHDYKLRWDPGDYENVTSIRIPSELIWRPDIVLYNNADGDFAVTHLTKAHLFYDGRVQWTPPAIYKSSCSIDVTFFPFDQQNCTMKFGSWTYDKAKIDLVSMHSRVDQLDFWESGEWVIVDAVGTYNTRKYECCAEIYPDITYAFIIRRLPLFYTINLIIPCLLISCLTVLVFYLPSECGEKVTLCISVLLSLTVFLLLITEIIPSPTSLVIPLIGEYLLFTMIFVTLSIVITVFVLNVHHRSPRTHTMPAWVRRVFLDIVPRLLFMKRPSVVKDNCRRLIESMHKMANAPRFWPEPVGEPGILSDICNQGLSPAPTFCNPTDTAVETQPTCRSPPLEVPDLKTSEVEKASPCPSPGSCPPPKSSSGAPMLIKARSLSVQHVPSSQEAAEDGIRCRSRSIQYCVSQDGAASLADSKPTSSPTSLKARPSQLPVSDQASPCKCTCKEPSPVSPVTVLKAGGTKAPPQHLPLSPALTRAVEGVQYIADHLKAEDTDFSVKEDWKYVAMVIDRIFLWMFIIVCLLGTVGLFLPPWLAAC
UniProt P12390, 25-500 limits assumed: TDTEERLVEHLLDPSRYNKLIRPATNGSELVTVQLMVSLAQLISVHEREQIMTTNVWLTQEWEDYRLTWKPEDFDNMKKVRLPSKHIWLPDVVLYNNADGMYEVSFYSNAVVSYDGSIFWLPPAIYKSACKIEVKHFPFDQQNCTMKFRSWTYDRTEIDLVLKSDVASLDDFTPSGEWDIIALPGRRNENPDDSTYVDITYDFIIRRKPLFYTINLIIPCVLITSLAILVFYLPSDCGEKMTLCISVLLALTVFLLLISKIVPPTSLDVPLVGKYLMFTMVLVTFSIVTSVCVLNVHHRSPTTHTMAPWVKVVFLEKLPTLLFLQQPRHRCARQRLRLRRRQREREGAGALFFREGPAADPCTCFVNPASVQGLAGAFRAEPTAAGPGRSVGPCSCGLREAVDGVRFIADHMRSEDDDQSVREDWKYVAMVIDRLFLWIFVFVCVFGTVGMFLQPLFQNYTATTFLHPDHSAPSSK
UniProt Q05941, 23-502 limits assumed: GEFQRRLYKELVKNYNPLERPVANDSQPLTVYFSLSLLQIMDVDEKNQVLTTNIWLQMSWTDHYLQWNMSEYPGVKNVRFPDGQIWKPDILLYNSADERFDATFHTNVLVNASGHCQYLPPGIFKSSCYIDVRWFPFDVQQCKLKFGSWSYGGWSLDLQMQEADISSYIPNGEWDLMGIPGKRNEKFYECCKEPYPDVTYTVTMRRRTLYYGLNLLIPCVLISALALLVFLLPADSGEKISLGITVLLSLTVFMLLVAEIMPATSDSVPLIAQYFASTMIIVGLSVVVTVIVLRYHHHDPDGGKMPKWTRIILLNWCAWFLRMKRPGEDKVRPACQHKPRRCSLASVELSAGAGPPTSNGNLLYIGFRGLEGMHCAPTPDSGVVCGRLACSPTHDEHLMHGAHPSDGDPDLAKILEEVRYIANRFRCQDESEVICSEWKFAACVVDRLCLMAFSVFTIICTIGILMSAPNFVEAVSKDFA

Experiment [1] concerns the target T1, Neuronal acetylcholine receptor; alpha4/beta2 (Rattus norvegicus, UniProt P09483+P12390). Description: binding affinity in rat forebrain against alpha4-beta2 nicotinic receptor.
Experiment [2] concerns the target T1, Neuronal acetylcholine receptor; alpha4/beta2.
For experiment [3], the target named is T2, Neuronal acetylcholine receptor subunit alpha-7 (Rattus norvegicus, UniProt Q05941). The settings on record: Hippocampus.
For experiment [4], the target named is T2, Neuronal acetylcholine receptor subunit alpha-7. Description: Binding affinity in rat hippocampi against Nicotinic acetylcholine receptor alpha7. Conditions: Hippocampus.
Experiment [5] addresses T1, Neuronal acetylcholine receptor; alpha4/beta2. Description: Binding affinity in rat forebrain against Nicotinic acetylcholine receptor alpha4-beta2.

Molecules are shown by their SMILES. Where “and” joins values, the source holds several entries; their conditions need not be identical. Identical values can stand only once.

As usually defined, the Ki is the dissociation constant of the complex between target and ligand, obtained from inhibition or displacement. A higher Ki goes with weaker binding.

On to `CN1CC2(CN3CCC2CC3)OC1=O` (stereo unspecified), for which the Ki was 450 nM and 200 nM in experiment [1]; 24000 nM in experiment [2]. With `O=C1NCCC2(CN3CCC2CC3)O1` (stereo unspecified), the affinity in experiment [3] corresponds to a Ki of 23000 nM. On to `O=C1CCC2(CN3CCC2CC3)O1` (stereo unspecified), for which the inhibition constant Ki in experiment [4] was determined as 3700 nM. With `O=C1OCC2(CN3CCC2CC3)O1` (stereo unspecified), the Ki in experiment [4] was found to be 560 nM; in experiment [5] it was 2200 nM.
